# Ab-14 light chain CDR variants: yeast mating affinities

Source: Li et al. 2023 (doi:10.1038/s41467-023-39022-2), MIT Lincoln Laboratory and A-Alpha Bio; data file from the FLAb repository.

Binding partner: SARS-CoV-2 spike HR2 peptide, sequence PDVDLGDISGINAS.

Parent scFv Ab-14: VH joined to VL by three GGGGS repeats. Changes lie in the light chain CDRs alone.
VH: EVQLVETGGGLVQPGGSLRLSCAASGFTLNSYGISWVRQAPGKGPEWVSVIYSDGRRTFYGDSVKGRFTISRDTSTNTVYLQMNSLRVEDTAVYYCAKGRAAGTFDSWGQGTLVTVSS
VL: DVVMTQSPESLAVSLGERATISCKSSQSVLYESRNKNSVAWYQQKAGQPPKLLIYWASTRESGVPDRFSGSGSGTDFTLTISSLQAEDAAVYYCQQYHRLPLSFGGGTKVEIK

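These sequences belong to a second round, designed from the earlier measurements on random variants of the parent. Their group label is 14L_GP_Gen (GP: Gaussian process model; Gen: genetic algorithm; a sequence that several methods proposed may carry one label only). Affinity was read by AlphaSeq, a pooled yeast mating assay with surface-displayed partners. Mating (16 h, 30 °C) was followed by selection of diploids and sequencing of their barcodes. Read counts were normalised to the haploid input and turned into Kd by a linear fit to BCL2-family pairs of known affinity, for each replicate. The assay was run in six technical replicates.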

Each variant is given by its three light chain CDRs, as the data file delimits them; those of the parent are KSSQSVLYESRNKNSVA, WASTRES, QQYHRLPLS.
Numbers give log10(Kd / nM), so 0 is 1 nM and 3 is 1 µM. Smaller is tighter.
Replicates are averaged; those with no signal do not enter the mean.
"n.d." means that the variant was in the library but no mating with the target was seen in that replicate; the authors take this as a sign of poor binding, and no number exists.

{"CDR-L1": "KFSQSWLYESRNKNSVA", "CDR-L2": "NASTREQ", "CDR-L3": "QQYHRLPLS", "log10 Kd (nM) by replicate": "-0.21 -0.21 -0.35 -0.33 -0.34 -0.27", "mean, log10 nM": "-0.29", "control signals": "1 of 18 (1.94)"}
{"CDR-L1": "KLSMSDLYESRNKNSVA", "CDR-L2": "NASTRES", "CDR-L3": "QQYHRLPLS", "log10 Kd (nM) by replicate": "0.39 0.36 0.12 0.30 0.61 0.39", "mean, log10 nM": "0.36", "control signals": "0 of 18"}
{"CDR-L1": "KFSQSVLYESRNKNSVA", "CDR-L2": "NASTREE", "CDR-L3": "QQYHRLPLS", "log10 Kd (nM) by replicate": "-0.16 -0.35 -0.47 -0.47 -0.45 -0.52", "mean, log10 nM": "-0.40", "control signals": "1 of 18 (2.07)"}
{"CDR-L1": "KLSQSELYESRNKNSVA", "CDR-L2": "NANTRMS", "CDR-L3": "QQYHRLPLS", "log10 Kd (nM) by replicate": "0.02 -0.25 -0.26 -0.27 0.01 -0.20", "mean, log10 nM": "-0.16", "control signals": "1 of 18 (2.36)"}
{"CDR-L1": "KMSQSELYESRNKNSVA", "CDR-L2": "NASTREE", "CDR-L3": "QQYHRLPLS", "log10 Kd (nM) by replicate": "-0.19 -0.19 -0.07 -0.43 -0.49 -0.34", "mean, log10 nM": "-0.28", "control signals": "0 of 18"}
{"CDR-L1": "KLSQSNLYESRNKNSVA", "CDR-L2": "EASTREQ", "CDR-L3": "QQYHRLPLS", "log10 Kd (nM) by replicate": "-0.05 -0.13 -0.26 -0.34 -0.22 -0.10", "mean, log10 nM": "-0.18", "control signals": "0 of 18"}
{"CDR-L1": "KLSQSELYEERNKNSVA", "CDR-L2": "NASTRES", "CDR-L3": "QQYHRLPLS", "log10 Kd (nM) by replicate": "-0.15 -0.47 -0.19 -0.32 -0.37 -0.20", "mean, log10 nM": "-0.28", "control signals": "0 of 18"}
{"CDR-L1": "KLQQSWLYESRNKNSVA", "CDR-L2": "NASTRFS", "CDR-L3": "QQYHRLPLS", "log10 Kd (nM) by replicate": "0.34 0.23 0.37 0.14 0.21 0.26", "mean, log10 nM": "0.26", "control signals": "1 of 18 (3.15)"}
{"CDR-L1": "KLSQSTLYESRNKNSVA", "CDR-L2": "NASTREV", "CDR-L3": "QQYHRLPLS", "log10 Kd (nM) by replicate": "0.34 0.59 0.18 0.58 0.30 0.51", "mean, log10 nM": "0.42", "control signals": "0 of 18"}
{"CDR-L1": "KVQQSWPYESRNKNSVA", "CDR-L2": "NASQRES", "CDR-L3": "QQYHRLPLS", "log10 Kd (nM) by replicate": "2.19 2.13 n.d. 2.45 1.89 n.d.", "mean, log10 nM": "2.17", "control signals": "1 of 18 (2.13)"}
{"CDR-L1": "KVSQSVLYESRNKNSVA", "CDR-L2": "EASQRES", "CDR-L3": "QQYHRLPLS", "log10 Kd (nM) by replicate": "0.30 -0.13 -0.16 -0.10 0.22 0.02", "mean, log10 nM": "0.02", "control signals": "0 of 18"}
{"CDR-L1": "KVQQSMLYESRNKNSVA", "CDR-L2": "NASTRES", "CDR-L3": "QQYHRLPLS", "log10 Kd (nM) by replicate": "-0.12 -0.31 -0.25 -0.29 -0.27 0.02", "mean, log10 nM": "-0.20", "control signals": "0 of 18"}
{"CDR-L1": "KLSQMVLYESRNKNSVA", "CDR-L2": "DASTRES", "CDR-L3": "QQYHRLPLS", "log10 Kd (nM) by replicate": "-0.06 0.00 0.12 -0.11 0.12 0.04", "mean, log10 nM": "0.02", "control signals": "1 of 18 (1.96)"}
{"CDR-L1": "KLSQSQLYESRQKNSVA", "CDR-L2": "NASTRES", "CDR-L3": "QQYHRLPLS", "log10 Kd (nM) by replicate": "-0.29 -0.17 -0.46 -0.56 -0.39 0.16", "mean, log10 nM": "-0.28", "control signals": "1 of 18 (1.39)"}
{"CDR-L1": "KLSQSVLYEERNKNSVA", "CDR-L2": "QASTRMS", "CDR-L3": "QQYHRLPLS", "log10 Kd (nM) by replicate": "0.41 0.39 0.26 0.00 0.26 0.36", "mean, log10 nM": "0.28", "control signals": "0 of 18"}
{"CDR-L1": "KLQQSVEYESRNKNSVA", "CDR-L2": "HASTRES", "CDR-L3": "QQYHRLPLS", "log10 Kd (nM) by replicate": "-0.08 -0.24 -0.12 -0.27 0.08 -0.10", "mean, log10 nM": "-0.12", "control signals": "2 of 18 (3.31)"}
{"CDR-L1": "KLSQSGLYESRNKNSVA", "CDR-L2": "EASTREQ", "CDR-L3": "QQYHRLPLS", "log10 Kd (nM) by replicate": "0.20 0.07 0.15 -0.01 0.09 0.19", "mean, log10 nM": "0.12", "control signals": "1 of 18 (2.30)"}
{"CDR-L1": "KISQSELYESRNKNSVA", "CDR-L2": "NASQRLS", "CDR-L3": "QQYHRLPLS", "log10 Kd (nM) by replicate": "0.86 1.49 0.68 0.90 1.27 0.74", "mean, log10 nM": "0.99", "control signals": "0 of 18"}
{"CDR-L1": "KVSQSNLYESRNKNSVA", "CDR-L2": "EASTRES", "CDR-L3": "QQYHRLPLS", "log10 Kd (nM) by replicate": "n.d. n.d. n.d. n.d. n.d. n.d.", "mean, log10 nM": "n.d.", "control signals": "0 of 18"}
{"CDR-L1": "KISQSVWYESRNKNSVA", "CDR-L2": "NASTRES", "CDR-L3": "QQYHRLPLS", "log10 Kd (nM) by replicate": "-0.18 -0.41 -0.13 -0.38 -0.36 -0.24", "mean, log10 nM": "-0.28", "control signals": "0 of 18"}
{"CDR-L1": "KLSFSMLYESRNKNSVA", "CDR-L2": "NASTRES", "CDR-L3": "QQYHRLPLS", "log10 Kd (nM) by replicate": "-0.32 -0.15 -0.46 -0.62 -0.46 -0.50", "mean, log10 nM": "-0.42", "control signals": "0 of 18"}
{"CDR-L1": "KVSQSVLYESRNKNSVA", "CDR-L2": "EASTRSS", "CDR-L3": "QQYHRLPLS", "log10 Kd (nM) by replicate": "0.02 -0.14 -0.22 -0.20 -0.15 0.05", "mean, log10 nM": "-0.11", "control signals": "5 of 18 (3.34)"}
{"CDR-L1": "KHSQSVLYESRNKNSVA", "CDR-L2": "EASQRES", "CDR-L3": "QQYHRLPLS", "log10 Kd (nM) by replicate": "0.51 0.26 0.14 0.12 0.28 0.03", "mean, log10 nM": "0.22", "control signals": "1 of 18 (1.58)"}
{"CDR-L1": "KVQQSQLYESRNKNSVA", "CDR-L2": "NASTRES", "CDR-L3": "QQYHRLPLS", "log10 Kd (nM) by replicate": "0.27 0.13 -0.04 0.06 -0.17 0.15", "mean, log10 nM": "0.07", "control signals": "2 of 18 (2.28)"}
{"CDR-L1": "KLEQSVLYESRNKNAVA", "CDR-L2": "NASTRMS", "CDR-L3": "QQYHRLPLS", "log10 Kd (nM) by replicate": "-0.25 -0.25 -0.58 -0.83 -0.81 -0.50", "mean, log10 nM": "-0.54", "control signals": "0 of 18"}
{"CDR-L1": "KLSQSQLYESRNKNSVA", "CDR-L2": "HASTRES", "CDR-L3": "QQYHRLPLS", "log10 Kd (nM) by replicate": "0.23 0.15 0.14 0.05 0.22 0.18", "mean, log10 nM": "0.16", "control signals": "1 of 18 (2.64)"}
{"CDR-L1": "KLSQSQLYESRNKNSVA", "CDR-L2": "EASTRCS", "CDR-L3": "QQYHRLPLS", "log10 Kd (nM) by replicate": "0.01 -0.05 -0.24 -0.04 -0.08 0.06", "mean, log10 nM": "-0.06", "control signals": "0 of 18"}
{"CDR-L1": "KLDQSVLYESRNKNSVA", "CDR-L2": "SASTRES", "CDR-L3": "QQYHRLPLS", "log10 Kd (nM) by replicate": "-0.21 -0.31 -0.13 -0.71 -0.45 -0.01", "mean, log10 nM": "-0.30", "control signals": "0 of 18"}
{"CDR-L1": "KLSQSYLYESRNKNNVA", "CDR-L2": "EASTRES", "CDR-L3": "QQYHRLPLS", "log10 Kd (nM) by replicate": "-0.10 -0.09 -0.12 -0.09 -0.25 -0.17", "mean, log10 nM": "-0.13", "control signals": "1 of 18 (2.30)"}

The 2 strongest on average among those seen in every replicate, once more:

{"CDR-L1": "KLEQSVLYESRNKNAVA", "CDR-L2": "NASTRMS", "CDR-L3": "QQYHRLPLS", "log10 Kd (nM) by replicate": "-0.25 -0.25 -0.58 -0.83 -0.81 -0.50", "mean, log10 nM": "-0.54", "control signals": "0 of 18"}
{"CDR-L1": "KLSFSMLYESRNKNSVA", "CDR-L2": "NASTRES", "CDR-L3": "QQYHRLPLS", "log10 Kd (nM) by replicate": "-0.32 -0.15 -0.46 -0.62 -0.46 -0.50", "mean, log10 nM": "-0.42", "control signals": "0 of 18"}

The parent sequence was in this pool as ten entries: three were never detected, three once, and four in most replicates, with averages from 0.34 to 2.37.
Values of this round are not directly comparable with the first-round values of the same sequences.
In the paper, a design with two or fewer of six values counts as a poor binder.
Empty control strains, which show no peptide, gave a signal in 4% of pairings with all light chain designs; the median was 2.64 and 95% of these signals were weaker than 1.59. No background was subtracted. The control count says in how many pairings with the empty strains this scFv gave a signal, with their mean in brackets.